The values below are quoted from earlier work in patent US20210069110A1, “NON-AQUEOUS COMPOSITION HAVING DRUG CARRIED THEREIN, AND METHOD FOR PRODUCING SAME” (Techno Guard Co. Ltd., priority 2017, published 2021).

The conditions of this series: General Notice of Japanese Pharmacopoeia.

As for Dexamethasone palmitate, the “Water solubility of drug (Expression in Japanese Pharmacopoeia)” value was “Practically insoluble”.
